Tested on: HEK293
Experiment: Inhibition of mouse derived homozygous Tg0N4R P301S mutant tau-induced human ON4R tau aggregation harboring P301S mutant transfected in HEK293 cells preincubated for 2 hrs followed by compound addition and measured after 3 hrs by YFP-based fluorescence assay

CN(C)C(=O)Cn1cc(-c2ccc(-c3cncc4ccccc34)cc2)cn1
fEC50: 2 nM

CC(=O)c1ccc2cncc(N3CCN(c4ccc5cnn(C)c5c4)CC3)c2c1
fEC50: 5 nM

Cc1nc(CC(=O)N2CCN(c3cncc4ccccc34)CC2)co1
fEC50: 210 nM
